By UniProt entry, the sequences of proteins in these tests, tags left out. Residues count along the entry.
UniProt Q96GD4, whole entry: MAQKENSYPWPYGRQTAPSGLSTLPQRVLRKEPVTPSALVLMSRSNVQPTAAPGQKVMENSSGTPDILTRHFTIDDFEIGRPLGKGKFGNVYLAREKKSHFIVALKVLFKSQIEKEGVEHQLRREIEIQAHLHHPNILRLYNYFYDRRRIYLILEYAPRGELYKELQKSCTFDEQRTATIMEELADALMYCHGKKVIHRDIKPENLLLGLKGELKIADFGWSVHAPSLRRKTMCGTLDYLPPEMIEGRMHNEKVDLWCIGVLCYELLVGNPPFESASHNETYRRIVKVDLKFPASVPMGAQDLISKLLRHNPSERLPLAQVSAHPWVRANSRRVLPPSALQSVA
UniProt P41240, whole entry: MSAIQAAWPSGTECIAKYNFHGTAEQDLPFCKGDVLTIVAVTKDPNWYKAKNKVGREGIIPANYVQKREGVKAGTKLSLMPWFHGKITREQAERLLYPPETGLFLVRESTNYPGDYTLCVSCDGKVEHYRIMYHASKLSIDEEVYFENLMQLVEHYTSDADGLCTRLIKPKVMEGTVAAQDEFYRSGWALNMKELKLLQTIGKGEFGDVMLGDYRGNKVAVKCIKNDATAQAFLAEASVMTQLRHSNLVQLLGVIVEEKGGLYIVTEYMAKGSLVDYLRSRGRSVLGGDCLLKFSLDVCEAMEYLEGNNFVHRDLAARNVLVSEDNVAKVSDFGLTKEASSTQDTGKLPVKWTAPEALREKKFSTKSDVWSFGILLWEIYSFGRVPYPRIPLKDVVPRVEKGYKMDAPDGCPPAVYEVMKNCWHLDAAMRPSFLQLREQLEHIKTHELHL
UniProt P48729, whole entry: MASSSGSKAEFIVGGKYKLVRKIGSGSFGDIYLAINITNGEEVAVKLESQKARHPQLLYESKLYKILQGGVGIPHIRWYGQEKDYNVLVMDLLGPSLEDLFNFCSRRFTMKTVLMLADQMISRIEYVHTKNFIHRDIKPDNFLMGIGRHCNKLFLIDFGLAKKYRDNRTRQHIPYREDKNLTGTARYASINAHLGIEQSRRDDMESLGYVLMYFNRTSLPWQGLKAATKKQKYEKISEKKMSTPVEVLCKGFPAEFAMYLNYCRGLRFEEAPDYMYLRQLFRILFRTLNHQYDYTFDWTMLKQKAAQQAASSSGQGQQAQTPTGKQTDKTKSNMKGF
UniProt O43781, whole entry: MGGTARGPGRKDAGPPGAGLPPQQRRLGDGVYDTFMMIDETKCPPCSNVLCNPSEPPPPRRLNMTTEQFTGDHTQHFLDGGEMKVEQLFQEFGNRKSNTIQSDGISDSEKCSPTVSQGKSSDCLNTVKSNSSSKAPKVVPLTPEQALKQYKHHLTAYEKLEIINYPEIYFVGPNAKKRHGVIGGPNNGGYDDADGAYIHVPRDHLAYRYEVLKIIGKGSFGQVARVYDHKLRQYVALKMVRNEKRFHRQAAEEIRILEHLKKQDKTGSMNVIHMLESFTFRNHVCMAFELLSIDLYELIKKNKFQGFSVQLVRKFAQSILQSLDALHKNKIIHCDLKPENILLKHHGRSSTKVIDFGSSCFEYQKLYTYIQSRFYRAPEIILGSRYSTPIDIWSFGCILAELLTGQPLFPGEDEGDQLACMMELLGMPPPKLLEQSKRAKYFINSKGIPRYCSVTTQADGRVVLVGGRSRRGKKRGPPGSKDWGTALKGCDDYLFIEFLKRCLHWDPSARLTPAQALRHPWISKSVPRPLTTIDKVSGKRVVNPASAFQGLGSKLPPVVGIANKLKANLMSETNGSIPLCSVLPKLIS
UniProt O60674, 536-1132 limits assumed: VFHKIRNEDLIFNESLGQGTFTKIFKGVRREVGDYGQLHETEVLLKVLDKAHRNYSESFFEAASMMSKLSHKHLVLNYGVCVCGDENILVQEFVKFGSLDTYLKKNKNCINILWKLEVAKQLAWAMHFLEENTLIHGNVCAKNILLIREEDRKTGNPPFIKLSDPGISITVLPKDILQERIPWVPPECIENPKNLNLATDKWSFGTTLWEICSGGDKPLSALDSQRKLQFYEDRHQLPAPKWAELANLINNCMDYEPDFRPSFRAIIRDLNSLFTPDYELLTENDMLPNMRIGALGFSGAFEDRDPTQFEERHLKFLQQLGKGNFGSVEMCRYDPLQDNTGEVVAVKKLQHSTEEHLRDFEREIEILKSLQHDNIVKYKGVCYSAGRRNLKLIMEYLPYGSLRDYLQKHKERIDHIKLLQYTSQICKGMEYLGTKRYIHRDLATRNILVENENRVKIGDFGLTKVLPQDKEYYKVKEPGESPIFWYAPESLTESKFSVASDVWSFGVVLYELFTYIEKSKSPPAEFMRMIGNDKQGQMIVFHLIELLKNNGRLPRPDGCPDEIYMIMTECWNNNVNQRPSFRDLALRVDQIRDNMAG
UniProt Q6VAB6, whole entry: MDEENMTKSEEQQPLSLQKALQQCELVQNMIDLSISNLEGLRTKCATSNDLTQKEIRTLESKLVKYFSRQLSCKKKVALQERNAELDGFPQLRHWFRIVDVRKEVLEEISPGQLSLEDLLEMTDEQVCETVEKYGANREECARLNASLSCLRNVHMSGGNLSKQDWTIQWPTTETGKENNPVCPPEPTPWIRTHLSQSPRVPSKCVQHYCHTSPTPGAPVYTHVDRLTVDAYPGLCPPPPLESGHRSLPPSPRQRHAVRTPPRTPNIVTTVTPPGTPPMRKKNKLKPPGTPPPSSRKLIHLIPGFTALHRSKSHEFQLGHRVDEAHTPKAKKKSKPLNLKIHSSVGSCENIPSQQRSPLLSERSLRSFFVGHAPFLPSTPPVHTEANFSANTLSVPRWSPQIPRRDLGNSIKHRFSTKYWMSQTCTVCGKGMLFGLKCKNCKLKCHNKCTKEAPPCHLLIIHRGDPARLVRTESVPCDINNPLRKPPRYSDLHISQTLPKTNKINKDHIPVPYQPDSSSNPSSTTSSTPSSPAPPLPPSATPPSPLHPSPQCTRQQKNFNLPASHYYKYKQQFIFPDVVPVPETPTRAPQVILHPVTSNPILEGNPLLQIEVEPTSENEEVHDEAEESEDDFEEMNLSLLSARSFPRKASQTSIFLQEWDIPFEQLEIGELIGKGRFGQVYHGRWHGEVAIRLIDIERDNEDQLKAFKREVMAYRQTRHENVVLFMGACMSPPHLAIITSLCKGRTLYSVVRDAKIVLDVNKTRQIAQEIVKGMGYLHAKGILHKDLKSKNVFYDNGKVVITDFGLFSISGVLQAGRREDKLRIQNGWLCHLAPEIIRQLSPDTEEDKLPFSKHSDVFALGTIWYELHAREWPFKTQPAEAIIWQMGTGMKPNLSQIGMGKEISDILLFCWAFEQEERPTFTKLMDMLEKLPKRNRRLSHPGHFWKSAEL
UniProt Q04912, 979-1400 limits assumed: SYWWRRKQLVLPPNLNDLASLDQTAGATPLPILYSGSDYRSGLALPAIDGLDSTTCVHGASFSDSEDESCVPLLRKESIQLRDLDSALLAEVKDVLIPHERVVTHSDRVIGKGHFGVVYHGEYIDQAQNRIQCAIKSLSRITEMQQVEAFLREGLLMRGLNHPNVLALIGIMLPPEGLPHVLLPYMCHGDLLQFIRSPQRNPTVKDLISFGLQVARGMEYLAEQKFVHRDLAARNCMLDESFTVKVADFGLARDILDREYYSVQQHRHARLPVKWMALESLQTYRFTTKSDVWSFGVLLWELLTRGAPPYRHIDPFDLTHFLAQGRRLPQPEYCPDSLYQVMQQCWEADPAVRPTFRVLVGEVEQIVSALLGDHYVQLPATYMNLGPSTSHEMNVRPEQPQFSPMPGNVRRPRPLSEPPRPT
UniProt Q9H1R3, whole entry: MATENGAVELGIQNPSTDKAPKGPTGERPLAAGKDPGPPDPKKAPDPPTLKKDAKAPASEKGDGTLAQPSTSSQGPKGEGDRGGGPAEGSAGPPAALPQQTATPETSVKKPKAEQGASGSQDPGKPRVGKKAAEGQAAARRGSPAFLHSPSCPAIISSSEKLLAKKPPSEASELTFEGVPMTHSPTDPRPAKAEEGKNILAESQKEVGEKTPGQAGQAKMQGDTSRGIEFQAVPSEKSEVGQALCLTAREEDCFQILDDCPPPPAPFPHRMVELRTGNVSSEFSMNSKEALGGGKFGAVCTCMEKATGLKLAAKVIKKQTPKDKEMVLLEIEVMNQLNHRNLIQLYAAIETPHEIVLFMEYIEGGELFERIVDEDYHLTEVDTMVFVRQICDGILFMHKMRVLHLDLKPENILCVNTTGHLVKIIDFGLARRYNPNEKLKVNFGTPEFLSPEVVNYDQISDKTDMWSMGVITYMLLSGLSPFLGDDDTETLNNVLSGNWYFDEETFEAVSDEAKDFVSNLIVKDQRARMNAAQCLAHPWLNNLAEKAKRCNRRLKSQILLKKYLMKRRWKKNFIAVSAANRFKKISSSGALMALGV
UniProt P12931, whole entry: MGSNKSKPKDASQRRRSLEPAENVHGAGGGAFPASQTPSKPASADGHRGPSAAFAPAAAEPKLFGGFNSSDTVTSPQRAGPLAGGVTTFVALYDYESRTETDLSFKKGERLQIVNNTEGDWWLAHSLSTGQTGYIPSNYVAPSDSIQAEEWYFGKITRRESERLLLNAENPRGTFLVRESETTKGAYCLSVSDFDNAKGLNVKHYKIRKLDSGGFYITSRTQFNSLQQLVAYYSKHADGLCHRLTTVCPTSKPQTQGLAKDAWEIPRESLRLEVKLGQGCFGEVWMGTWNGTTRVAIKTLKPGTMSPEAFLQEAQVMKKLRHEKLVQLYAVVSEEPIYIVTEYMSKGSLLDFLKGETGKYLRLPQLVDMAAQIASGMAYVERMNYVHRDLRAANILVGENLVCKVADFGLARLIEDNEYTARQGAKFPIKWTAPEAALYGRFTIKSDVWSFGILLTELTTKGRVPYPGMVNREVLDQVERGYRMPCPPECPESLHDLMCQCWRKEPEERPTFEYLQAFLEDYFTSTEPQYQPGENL
UniProt P11802, whole entry: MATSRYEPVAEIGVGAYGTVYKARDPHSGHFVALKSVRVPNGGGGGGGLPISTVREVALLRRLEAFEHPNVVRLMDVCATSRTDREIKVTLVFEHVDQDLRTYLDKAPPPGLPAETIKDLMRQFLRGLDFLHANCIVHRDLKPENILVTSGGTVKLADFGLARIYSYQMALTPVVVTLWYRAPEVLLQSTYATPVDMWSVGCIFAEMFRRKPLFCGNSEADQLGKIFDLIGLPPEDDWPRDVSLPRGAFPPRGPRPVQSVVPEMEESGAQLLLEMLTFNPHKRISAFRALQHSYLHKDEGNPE
UniProt Q8TCG2, whole entry: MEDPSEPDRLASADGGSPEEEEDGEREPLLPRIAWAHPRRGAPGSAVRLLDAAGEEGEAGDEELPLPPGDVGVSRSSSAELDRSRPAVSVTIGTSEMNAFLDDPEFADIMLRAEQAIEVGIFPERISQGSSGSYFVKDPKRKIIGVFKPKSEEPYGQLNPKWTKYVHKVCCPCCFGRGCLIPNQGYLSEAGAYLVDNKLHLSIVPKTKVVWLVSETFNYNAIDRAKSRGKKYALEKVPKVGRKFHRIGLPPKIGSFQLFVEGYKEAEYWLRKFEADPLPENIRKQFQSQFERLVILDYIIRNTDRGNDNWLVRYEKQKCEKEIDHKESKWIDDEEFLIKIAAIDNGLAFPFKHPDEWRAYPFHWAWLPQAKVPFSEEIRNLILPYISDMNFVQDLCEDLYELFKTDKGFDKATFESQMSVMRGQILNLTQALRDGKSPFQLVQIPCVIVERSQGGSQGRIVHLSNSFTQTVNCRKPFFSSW
UniProt Q8NEB9, whole entry: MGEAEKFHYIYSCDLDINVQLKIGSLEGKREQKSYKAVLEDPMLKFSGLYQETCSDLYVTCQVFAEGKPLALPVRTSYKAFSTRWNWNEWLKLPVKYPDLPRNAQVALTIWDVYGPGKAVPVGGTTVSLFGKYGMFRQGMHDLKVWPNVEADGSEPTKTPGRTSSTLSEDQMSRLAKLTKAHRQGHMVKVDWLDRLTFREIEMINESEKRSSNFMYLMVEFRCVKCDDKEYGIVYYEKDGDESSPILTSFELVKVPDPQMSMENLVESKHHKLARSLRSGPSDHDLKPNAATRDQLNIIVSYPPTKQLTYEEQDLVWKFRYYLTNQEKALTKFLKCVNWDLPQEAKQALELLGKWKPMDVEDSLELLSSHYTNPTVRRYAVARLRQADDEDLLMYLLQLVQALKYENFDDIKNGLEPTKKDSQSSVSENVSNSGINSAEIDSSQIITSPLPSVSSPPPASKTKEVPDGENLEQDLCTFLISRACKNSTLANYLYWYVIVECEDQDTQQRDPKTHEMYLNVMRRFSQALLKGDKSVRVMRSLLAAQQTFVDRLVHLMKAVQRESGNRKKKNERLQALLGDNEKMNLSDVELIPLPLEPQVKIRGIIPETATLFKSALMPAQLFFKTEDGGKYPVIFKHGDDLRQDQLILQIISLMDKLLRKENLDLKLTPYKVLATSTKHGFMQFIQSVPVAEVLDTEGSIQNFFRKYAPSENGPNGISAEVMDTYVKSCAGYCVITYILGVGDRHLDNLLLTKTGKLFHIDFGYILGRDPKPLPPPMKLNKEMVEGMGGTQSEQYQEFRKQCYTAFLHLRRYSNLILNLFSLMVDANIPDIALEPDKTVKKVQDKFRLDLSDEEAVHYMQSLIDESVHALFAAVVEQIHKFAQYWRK

According to patent publication US20260384438A1, “PYRROLOPYRIMIDINE CARBOXAMIDES” (published 2026):

Columns and labels:
[1] = Metabolic stability in human liver microsomes (HLM); conditions: human liver microsomes 1 mg/mL, 1 μM
[2] = biological target: CYP2C9 (Homo sapiens, UniProt P11712); experiment: CYP time dependent inhibition, CYP2C9; conditions: 10 μM, 30 min preincubation, HLM
[3] = biological target: CYP2D6 (Homo sapiens, UniProt P10635); experiment: CYP time dependent inhibition, CYP2D6; conditions: 10 μM, 30 min preincubation, HLM
[4] = system: THP-1 cells; experiment: THP-1 assay (cytotoxicity, resazurin); conditions: read-out: THP-1 cytotoxicity IC50, 48 h
[5] = system: PKMYT1 knock out (KO) SKOV3 cells; experiment: CellTiter-Glo growth inhibition, PKMYT1 KO SKOV3 cells; conditions: 7-day CTG
[6] = biological target: ALK (Homo sapiens, UniProt Q9UM73); experiment: Kinase profiling, Z-Lyte; conditions: 1 μM, KmATP
[7] = biological target: AURKB (Aurora B) (Homo sapiens, UniProt Q96GD4); experiment: Kinase profiling, Z-Lyte; conditions: 1 μM, KmATP
[8] = biological target: AXL (Homo sapiens, UniProt P30530); experiment: Kinase profiling, Z-Lyte; conditions: 1 μM, KmATP
[9] = biological target: BMX (Homo sapiens, UniProt P51813); experiment: Kinase profiling, Z-Lyte; conditions: 1 μM, KmATP
[10] = biological target: CAMK1G (Homo sapiens, UniProt Q96NX5); experiment: Kinase profiling, Z-Lyte; conditions: 1 μM, KmATP
[11] = biological target: CDK1/cyclin B (Homo sapiens, UniProt P06493); experiment: Kinase profiling, Z-Lyte; conditions: 1 μM, KmATP
[12] = biological target: CDK17/cyclin Y (Homo sapiens, UniProt Q00537); experiment: Kinase profiling, Z-Lyte; conditions: 1 μM, KmATP
[13] = biological target: CDK18/cyclin Y (Homo sapiens, UniProt Q07002); experiment: Kinase profiling, Z-Lyte; conditions: 1 μM, KmATP
[14] = biological target: CDK2/cyclin A (Homo sapiens, UniProt P24941); experiment: Kinase profiling, Z-Lyte; conditions: 1 μM, KmATP
[15] = biological target: CSK (Homo sapiens, UniProt P41240); experiment: Kinase profiling, Z-Lyte; conditions: 1 μM, KmATP
[16] = biological target: CSNK1A1 (Homo sapiens, UniProt P48729); experiment: Kinase profiling, Z-Lyte; conditions: 1 μM, KmATP
[17] = biological target: CSNK1A1L (Homo sapiens, UniProt Q8N752); experiment: Kinase profiling, Z-Lyte; conditions: 1 μM, KmATP
[18] = biological target: DNA-PK (Homo sapiens, UniProt P78527); experiment: Kinase profiling, Z-Lyte; conditions: 1 μM, KmATP
[19] = biological target: DYRK3 (Homo sapiens, UniProt O43781); experiment: Kinase profiling, Z-Lyte; conditions: 1 μM, KmATP
[20] = biological target: JAK2 JH1 JH2 (Homo sapiens, UniProt O60674); experiment: Kinase profiling, Z-Lyte; conditions: 1 μM, KmATP
[21] = biological target: KSR2 (Homo sapiens, UniProt Q6VAB6); experiment: Kinase profiling, Z-Lyte; conditions: 1 μM, KmATP
[22] = biological target: MSTIR (RON) (Homo sapiens, UniProt Q04912); experiment: Kinase profiling, Z-Lyte; conditions: 1 μM, KmATP
[23] = biological target: MYLK2 (Homo sapiens, UniProt Q9H1R3); experiment: Kinase profiling, Z-Lyte; conditions: 1 μM, KmATP
[24] = biological target: NEK2 (Homo sapiens, UniProt P51955); experiment: Kinase profiling, Z-Lyte; conditions: 1 μM, KmATP
[25] = biological target: NTRK3 (TRKC) (Homo sapiens, UniProt Q16288); experiment: Kinase profiling, Z-Lyte; conditions: 1 μM, KmATP
[26] = biological target: PHKG2 (Homo sapiens, UniProt P15735); experiment: Kinase profiling, Z-Lyte; conditions: 1 μM, KmATP
[27] = biological target: PRKACA (PKA) (Homo sapiens, UniProt P17612); experiment: Kinase profiling, Z-Lyte; conditions: 1 μM, KmATP
[28] = biological target: PRKCA (PKC alpha) (Homo sapiens, UniProt P17252); experiment: Kinase profiling, Z-Lyte; conditions: 1 μM, KmATP
[29] = biological target: RPS6KA1 (RSK1) (Homo sapiens, UniProt Q15418); experiment: Kinase profiling, Z-Lyte; conditions: 1 μM, KmATP
[30] = biological target: RPS6KA4 (MSK2) (Homo sapiens, UniProt O75676); experiment: Kinase profiling, Z-Lyte; conditions: 1 μM, KmATP
[31] = biological target: SRC Hu Phos (Homo sapiens, UniProt P12931); experiment: Kinase profiling, Z-Lyte
[32] = biological target: STK3 (MST2) (Homo sapiens, UniProt Q13188); experiment: Kinase profiling, Z-Lyte; conditions: 1 μM, KmATP
[33] = biological target: STK4 (MST1) (Homo sapiens, UniProt Q13043); experiment: Kinase profiling, Z-Lyte; conditions: 1 μM, KmATP
[34] = biological target: TYK2 (Homo sapiens, UniProt P29597); experiment: Kinase profiling, Z-Lyte; conditions: 1 μM, KmATP
[35] = biological target: CDK4 Cyclin D1 (Homo sapiens, UniProt P11802); experiment: Kinase profiling, Adapta *Mn*; conditions: 1 μM, KmATP
[36] = biological target: CDK4 Cyclin D3 (Homo sapiens, UniProt P11802); experiment: Kinase profiling, Adapta *Mn*; conditions: 1 μM, KmATP
[37] = biological target: PI4K2A (Homo sapiens, UniProt Q9BTU6); experiment: Kinase profiling, Adapta *Mn*; conditions: 1 μM, KmATP
[38] = biological target: PI4K2B (Homo sapiens, UniProt Q8TCG2); experiment: Kinase profiling, Adapta *Mn*; conditions: 1 μM, KmATP
[39] = biological target: PIK3C3 (hVPS34) (Homo sapiens, UniProt Q8NEB9); experiment: Kinase profiling, Adapta *Mn*; conditions: 1 μM, KmATP

## Cc1nc(C(F)(F)F)c2c(C(N)=O)c(N)n(-c3c(C)ccc(O)c3C)c2n1 (single isomer, unassigned)
[1]
  HLM (CLint): <5.834 µL/min/mg
[2]
  % time dependent inhibition (TDI), CYP2C9: less than 20%
[3]
  % time dependent inhibition (TDI), CYP2D6: less than 20%
[4]
  IC50: 34 µM
[5]
  sensitivity of PKMYT1 KO SKOV3 cells: resistant
[5]; PKMYT1 deletion
  GI50: > 20 µM
[6]
  MEAN INHIBITION: 6.004%
[7]
  MEAN INHIBITION: 6.308%
[8]
  MEAN INHIBITION: 4.909%
[9]
  MEAN INHIBITION: 19.529%
[10]
  MEAN INHIBITION: 6.787%
[11]
  MEAN INHIBITION: 4.337%
[12]
  MEAN INHIBITION: 13.479%
[13]
  MEAN INHIBITION: 5.763%
[14]
  MEAN INHIBITION: 6.868%
[15]
  MEAN INHIBITION: 4.754%
[16]
  MEAN INHIBITION: 4.723%
[17]
  MEAN INHIBITION: 3.325%
[18]
  MEAN INHIBITION: 2.292%
[19]
  MEAN INHIBITION: 0.554%
[20]
  MEAN INHIBITION: 0.927%
[21]
  MEAN INHIBITION: 3.346%
[22]
  MEAN INHIBITION: 1.678%
[23]
  MEAN INHIBITION: 0.373%
[24]
  MEAN INHIBITION: 15.105%
[25]
  MEAN INHIBITION: 6.225%
[26]
  MEAN INHIBITION: 0.872%
[27]
  MEAN INHIBITION: 1.830%
[28]
  MEAN INHIBITION: 0.422%
[29]
  MEAN INHIBITION: 10.570%
[30]
  MEAN INHIBITION: 6.622%
[31]; 1 μM, KmATP
  MEAN INHIBITION: 72.168%
[31]; 10-point CR, ATP 50.000 μM
  IC50: 0.185 µM
[32]
  MEAN INHIBITION: 1.674%
[33]
  MEAN INHIBITION: 4.636%
[34]
  MEAN INHIBITION: 0.594%
[35]
  MEAN INHIBITION: 7.329%
[36]
  MEAN INHIBITION: 5.195%
[37]
  MEAN INHIBITION: −3.804%
[38]
  MEAN INHIBITION: 0.544%
[39]
  MEAN INHIBITION: −3.447%
